# Source: patent US20160287666A1 (priority 2015, published 2016)
# Amino acid sequences for entries named in this document (tags omitted). A change or cut given only in a name is not applied to a line headed by its entry.
# UniProt Q15858: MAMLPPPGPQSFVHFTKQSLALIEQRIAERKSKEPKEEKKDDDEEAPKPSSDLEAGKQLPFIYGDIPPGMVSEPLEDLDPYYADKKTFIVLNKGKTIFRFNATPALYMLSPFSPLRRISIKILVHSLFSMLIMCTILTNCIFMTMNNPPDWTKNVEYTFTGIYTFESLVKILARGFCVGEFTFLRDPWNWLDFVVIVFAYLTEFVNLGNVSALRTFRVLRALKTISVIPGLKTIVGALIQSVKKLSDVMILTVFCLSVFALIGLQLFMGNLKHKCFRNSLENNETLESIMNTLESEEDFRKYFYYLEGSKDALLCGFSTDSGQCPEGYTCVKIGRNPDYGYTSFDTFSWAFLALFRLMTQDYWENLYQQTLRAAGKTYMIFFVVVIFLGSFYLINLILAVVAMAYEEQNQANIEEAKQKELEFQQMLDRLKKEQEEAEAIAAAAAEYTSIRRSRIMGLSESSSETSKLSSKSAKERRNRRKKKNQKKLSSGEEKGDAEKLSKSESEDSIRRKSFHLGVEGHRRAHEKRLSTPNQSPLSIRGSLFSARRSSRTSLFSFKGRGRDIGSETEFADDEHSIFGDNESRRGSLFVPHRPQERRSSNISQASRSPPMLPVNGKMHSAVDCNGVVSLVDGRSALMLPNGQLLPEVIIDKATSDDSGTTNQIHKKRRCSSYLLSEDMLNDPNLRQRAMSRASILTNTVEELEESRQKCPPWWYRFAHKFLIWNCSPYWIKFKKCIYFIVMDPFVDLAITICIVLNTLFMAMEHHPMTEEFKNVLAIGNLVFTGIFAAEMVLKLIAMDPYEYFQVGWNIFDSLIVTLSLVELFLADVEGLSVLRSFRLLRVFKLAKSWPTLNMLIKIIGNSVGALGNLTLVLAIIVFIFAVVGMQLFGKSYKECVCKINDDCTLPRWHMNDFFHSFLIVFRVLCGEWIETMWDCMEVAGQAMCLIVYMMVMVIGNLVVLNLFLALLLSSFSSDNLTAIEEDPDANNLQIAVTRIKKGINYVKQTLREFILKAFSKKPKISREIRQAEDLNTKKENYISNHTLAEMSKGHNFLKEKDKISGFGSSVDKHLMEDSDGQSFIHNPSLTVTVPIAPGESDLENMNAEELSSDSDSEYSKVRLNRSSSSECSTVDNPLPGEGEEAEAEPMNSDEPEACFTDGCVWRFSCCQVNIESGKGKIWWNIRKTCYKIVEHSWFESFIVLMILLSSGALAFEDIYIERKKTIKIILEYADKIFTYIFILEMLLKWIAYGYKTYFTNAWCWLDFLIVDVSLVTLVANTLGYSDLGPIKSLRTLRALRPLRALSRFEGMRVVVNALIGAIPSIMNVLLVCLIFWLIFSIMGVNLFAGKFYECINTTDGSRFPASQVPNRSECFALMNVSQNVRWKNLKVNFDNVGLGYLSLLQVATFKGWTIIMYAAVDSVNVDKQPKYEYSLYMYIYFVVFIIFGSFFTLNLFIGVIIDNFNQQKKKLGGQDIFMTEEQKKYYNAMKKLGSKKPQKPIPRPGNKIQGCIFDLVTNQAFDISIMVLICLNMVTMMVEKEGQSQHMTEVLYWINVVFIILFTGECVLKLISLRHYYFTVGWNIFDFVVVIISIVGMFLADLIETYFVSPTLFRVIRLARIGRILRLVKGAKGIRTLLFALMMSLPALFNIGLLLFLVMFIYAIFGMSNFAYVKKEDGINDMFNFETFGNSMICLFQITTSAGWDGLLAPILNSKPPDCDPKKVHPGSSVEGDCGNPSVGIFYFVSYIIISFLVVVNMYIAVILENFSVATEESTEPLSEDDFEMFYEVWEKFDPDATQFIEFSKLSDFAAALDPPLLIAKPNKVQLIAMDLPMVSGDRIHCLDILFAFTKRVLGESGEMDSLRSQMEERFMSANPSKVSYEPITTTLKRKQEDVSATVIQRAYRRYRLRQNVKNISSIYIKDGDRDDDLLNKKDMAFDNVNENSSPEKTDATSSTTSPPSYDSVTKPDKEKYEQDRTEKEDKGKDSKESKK
# UniProt Q9UQD0, whole entry: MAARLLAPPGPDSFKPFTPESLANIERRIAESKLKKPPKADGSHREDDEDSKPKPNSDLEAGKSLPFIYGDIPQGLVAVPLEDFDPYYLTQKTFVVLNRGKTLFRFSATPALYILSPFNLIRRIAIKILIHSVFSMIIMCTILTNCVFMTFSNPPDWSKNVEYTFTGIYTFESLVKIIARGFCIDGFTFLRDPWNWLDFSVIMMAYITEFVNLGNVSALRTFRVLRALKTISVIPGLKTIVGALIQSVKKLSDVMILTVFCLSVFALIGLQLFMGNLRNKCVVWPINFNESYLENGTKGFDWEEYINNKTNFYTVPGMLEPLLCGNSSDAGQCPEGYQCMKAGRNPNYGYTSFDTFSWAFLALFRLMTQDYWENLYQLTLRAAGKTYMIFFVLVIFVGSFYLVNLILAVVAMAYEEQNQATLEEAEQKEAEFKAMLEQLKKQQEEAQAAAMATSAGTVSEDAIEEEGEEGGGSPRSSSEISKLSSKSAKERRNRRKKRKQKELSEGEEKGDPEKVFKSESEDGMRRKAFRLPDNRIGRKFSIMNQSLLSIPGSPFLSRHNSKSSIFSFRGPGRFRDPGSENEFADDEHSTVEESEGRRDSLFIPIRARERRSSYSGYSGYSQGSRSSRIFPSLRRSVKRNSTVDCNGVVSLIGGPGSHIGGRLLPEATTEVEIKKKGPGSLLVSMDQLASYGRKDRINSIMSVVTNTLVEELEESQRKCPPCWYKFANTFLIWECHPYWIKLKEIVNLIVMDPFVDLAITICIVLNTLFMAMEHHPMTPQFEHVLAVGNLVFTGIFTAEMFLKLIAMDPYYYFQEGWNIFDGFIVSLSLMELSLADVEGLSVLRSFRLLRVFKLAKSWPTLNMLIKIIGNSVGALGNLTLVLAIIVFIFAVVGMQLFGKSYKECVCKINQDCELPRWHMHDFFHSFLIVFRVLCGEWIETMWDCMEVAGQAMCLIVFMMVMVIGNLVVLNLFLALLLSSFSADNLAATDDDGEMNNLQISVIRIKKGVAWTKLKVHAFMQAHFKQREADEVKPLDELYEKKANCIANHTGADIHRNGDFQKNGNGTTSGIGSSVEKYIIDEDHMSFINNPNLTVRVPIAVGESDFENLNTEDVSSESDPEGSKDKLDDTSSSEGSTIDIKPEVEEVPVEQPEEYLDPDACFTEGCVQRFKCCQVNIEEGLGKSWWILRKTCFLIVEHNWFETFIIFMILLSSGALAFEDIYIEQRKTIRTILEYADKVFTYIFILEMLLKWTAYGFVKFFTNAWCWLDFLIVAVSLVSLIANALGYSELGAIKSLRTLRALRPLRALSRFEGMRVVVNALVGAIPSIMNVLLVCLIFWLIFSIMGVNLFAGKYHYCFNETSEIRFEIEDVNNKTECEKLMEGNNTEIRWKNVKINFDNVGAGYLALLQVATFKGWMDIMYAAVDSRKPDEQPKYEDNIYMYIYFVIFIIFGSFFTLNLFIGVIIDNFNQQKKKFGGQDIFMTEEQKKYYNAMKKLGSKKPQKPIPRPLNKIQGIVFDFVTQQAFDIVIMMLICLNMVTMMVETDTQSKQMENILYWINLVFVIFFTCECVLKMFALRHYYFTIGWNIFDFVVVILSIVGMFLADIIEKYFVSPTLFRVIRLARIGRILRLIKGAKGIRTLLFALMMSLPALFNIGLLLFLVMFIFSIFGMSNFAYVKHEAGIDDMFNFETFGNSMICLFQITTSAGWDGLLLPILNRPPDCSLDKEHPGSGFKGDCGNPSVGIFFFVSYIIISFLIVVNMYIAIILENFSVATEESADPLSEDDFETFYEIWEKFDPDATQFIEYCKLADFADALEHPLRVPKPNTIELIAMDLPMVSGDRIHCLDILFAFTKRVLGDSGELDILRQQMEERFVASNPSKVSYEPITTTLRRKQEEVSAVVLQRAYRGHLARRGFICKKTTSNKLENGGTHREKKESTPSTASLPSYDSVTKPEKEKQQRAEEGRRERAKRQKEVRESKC
# Where two headings read alike, the source gives them in different places. Ends that are not written are not given here.
# Assays:
# Assay type in all cases: cell-based
# human Nav1.7 [1] = biological target: T1, human Nav1.7 (Homo sapiens, UniProt Q15858, W1161R)
# human Nav1.7 [2] = biological target: T1, human Nav1.7; conditions: read-out: hNav1.7 QPatch IC50
# human Nav1.6 = human Nav1.6 (Homo sapiens, UniProt Q9UQD0)
Substance,IC50 (human Nav1.7 [1]; read-out: hNav1.7 TETRA IC50),IC50 (human Nav1.7 [2]),IC50 (human Nav1.7 [1]; read-out: Nav1.7 IC50),selectivity towards Nav1.7 compared to recombinant Protoxin-II (human Nav1.6)
GPACQKWMQTCDAERKCCEGFVCRLWCKKKLW-COOH [NV1D2774],50.5 ± 15.2 nM,18.7 ± 13.6 nM,–,–
GPQCQKWMQTCDAERKCCEGFVCRLWCKKKLW-OH (cysteine pairing not given here) [NV1D2775],25.4 ± 2 nM,4 ± 8.9 nM,42.9 nM,improved selectivity
GPQCQKWMQTCDRERKCCEGFVCTLWCRKKLW-COOH [NV1D3034],10.3 ± 2.1 nM,4.3 ± 4.3 nM,–,–
GPRCQKWMQTCDAERKCCEGFVCRLWCKKKLW-OH (cysteine pairing not given here) [NV1D2772],15.6 ± 1.8 nM,6.2 ± 3.2 nM,–,improved selectivity
GPSCQKWMQTCDAERKCCEGFVCRLWCKKKLW-OH (cysteine pairing not given here) [NV1D2773],18.8 ± 1.5 nM,4.3 ± 3.3 nM,18.8 nM,–
GPYCQKWMQTCDAERKCCEGFSCTLWCKKKLW-COOH [NV1D3556],–,–,100 nM,–
GPYCQKWMQTCDAERKCCEGMVCRLWCKKKLW-COOH [NV1D2676],26.5 ± 2.9 nM,–,–,–
GPYCQKWMQTCDAKRKCCEGFSCTLWCRKKLW-COOH [NV1D3536],–,–,37 nM,–
GPYCQKWMQTCDAKRKCCEGFVCTLWCRKKLW-COOH [NV1D3531],–,–,13 nM,–
GPYCQKWMQTCDANRKCCEGFSCRLWCKKKLW-COOH [NV1D3586],–,–,20.5 nM,–
GPYCQKWMQTCDANRKCCEGFSCTLWCKKKLW-COOH [NV1D3560],–,–,27.2 nM,–
GPYCQKWMQTCDANRKCCEGFVCTLWCKKKLW-COOH [NV1D3575],–,–,33.2 nM,–
GPYCQKWMQTCDARRKCCEGFSCRLWCKKKLW-COOH [NV1D3582],–,–,17.8 nM,–
GPYCQKWMQTCDARRKCCEGFSCTLWCKKKLW-COOH [NV1D3564],–,–,32.3 nM,–
GPYCQKWMQTCDARRKCCEGFVCTLWCKKKLW-COOH [NV1D3571],–,–,21 nM,–
GPYCQKWMQTCDRERKCCEGFSCTLWCRKKLW-COOH [NV1D3553],–,–,52.4 nM,–
GPYCQKWMQTCDRERKCCEGFVCTLWCRKKLW-COOH [NV1D3549],–,–,27.5 nM,–
GPYCQKWMQTCDRNRKCCEGFSCTLWCRKKLW-COOH [NV1D3545],–,–,42.8 nM,–
GPYCQKWMQTCDRNRKCCEGFVCTLWCRKKLW-COOH [NV1D3540],–,–,16 nM,–
GPYCQKWMQTCDSERKCCEGFVCRLWCKKKLW-COOH [NV1D2666],66.5 ± 36.7 nM,–,–,–
GPYGRKKRRQRRRQCQKWMQTCDRERKCCEGFVCTLWCRKKLW-COOH [NV1D3818],–,–,36.3 nM,–
SCQKWMQTCDAERKCCEGFVCRLWCKKKLW-COOH [(-GP) NV1D2773],9.47 nM,–,9.47 nM,–
